Values of other authors, collected in patent US4891377A, “Transdermal delivery of the narcotic analgesics etorphine and analogs” (dated 1990).

Conditions: previously reported

Compound: CCC(=O)N(c1ccccc1)C1CCN(CCc2ccccc2)CC1
- extent of accumulation in human lungs relative to animals: exceed by far that seen in animals
- sequestration in human lungs: sequestered in human lungs and therefore bound to lung tissue

Some compounds may have been tested in ways that are not shown here.
